Results from patent US10875895B2, “Antibacterial cell-penetrating peptides” (Purdue Research Foundation, priority 2018, dated 2020).

Test system: S. aureus MRSA US300
Details: 2x or 4x MIC, CAMHB media

| SMILES | time for a similar (greater than 5 log) reduction in bacteria levels [hours] | reduction in bacteria levels (in 24 hours) |
| --- | --- | --- |
| CN[C@H](CC(C)C)C(=O)N[C@H]1C(=O)N[C@@H](CC(N)=O)C(=O)N[C@H]2C(=O)N[C@H]3C(=O)N[C@H](C(=O)N[C@H](C(=O)O)c4cc(O)cc(O)c4-c4cc3ccc4O)[C@H](O)c3ccc(c(Cl)c3)Oc3cc2cc(c3O[C@@H]2O[C@H](CO)[C@@H](O)[C@H](O)[C@H]2O[C@H]2C[C@](C)(N)[C@H](O)[C@H](C)O2)Oc2ccc(cc2Cl)[C@H]1O [Vancomycin, vancomycin] | 24 |  |
| CC(=O)NC[C@H]1CN(c2ccc(N3CCOCC3)c(F)c2)C(=O)O1 [linezolid] |  | about a log reduction |
